These results are taken from PMC5424463, “A strategy based on nucleotide specificity leads to a subfamily-selective and cell-active inhibitor of N ^6-methyladenosine demethylase FTO” (Chemical Science, 2014).

Sequences of proteins named here, by UniProt entry; tags and fusion partners are left off. Residues count along the entry.
UniProt Q6P6C2, 66-292: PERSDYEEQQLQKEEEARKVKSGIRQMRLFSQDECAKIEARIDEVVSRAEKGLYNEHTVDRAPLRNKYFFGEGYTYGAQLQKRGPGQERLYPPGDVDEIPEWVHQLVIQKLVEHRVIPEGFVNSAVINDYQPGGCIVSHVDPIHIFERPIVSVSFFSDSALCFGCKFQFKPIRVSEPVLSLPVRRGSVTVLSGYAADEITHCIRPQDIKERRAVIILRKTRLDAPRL

The target of this experiment is T1, ALKBH5 (Homo sapiens, UniProt Q6P6C2).
T1 construct: pNIC28-Bsa4 ALKBH5 (encompassing residues 66-292); made in house; host or cells: E. coli BL21 (DE3) Rosetta T1R
Put plainly: Differential scanning fluorimetry (DSF)-based binding assay, ALKBH5. The note with it: read-out: Tm shift (ALKBH5). As for the experimental part: Superdex-200 column (GE Healthcare) pre-equilibrated with 20 mM HEPES, pH 7.5, 300 mM NaCl, 10% (v/v) glycerol, 0.5 mM TCEP. […]
∆N31-FTO in complex with 12, 16, and 21 contained 100 mM Sodium Citrate, pH 5.6, 10% w/v polyethylene glycol (PEG) 3350, 10% t-butanol. […]
solution diluted to 22% glycerol and flash frozen in liquid nitrogen. Crystals of ∆N31-FTO in complex with 21 were screened on PXIII beamline at the Swiss Light Source. ∆N31-FTO in complex with 12 and 16 were screened on PXI beamline at the Swiss Light Source. […]
Differential scanning fluorimetry (DSF)-based binding assay
DSF-based binding assay was performed using a MiniOpticon™ Real-Time PCR Detection System (Bio-Rad), monitoring protein unfolding using SYPRO orange (Invitrogen) according to the reported method.[16] FAM (492 nm) and ROX (610 nm) filters were used for excitation and emission respectively. […]
mix. Fluorescence readings were taken every 1°C in the range 25-95°C, with the temperature increased linearly by 1°C min -1. […] The inflection point, representing Tm, was calculated by fitting the Boltzmann equation to the sigmoidal curves obtained; data were processed using GraphPad Prism 6.0™.
The Tm shift caused by the addition of small molecules/ fragments was determined by subtraction of the “reference” Tm (protein incubated with metal and 1% v/v DMSO) from the Tm obtained in the presence of the compound. […]

Take `O=C(O)CNC(=O)C(=O)O` [NOG, N-oxalylglycine, reference compound]: the ΔTm at 100 µM came out at 2.1 °C.
